Values quoted from earlier work as cited in article PMC5779092 (Biochemistry, 2017).

Biological target: BPTF bromodomain (5FW-BPTF) (Homo sapiens, UniProt Q12830)
Details: BPTF bromodomain inhibitor, recently reported; cited from earlier work

In the case of COC(=O)c1cccc(NC(=O)NC2CCN(c3ccnc(Nc4ccc(F)cc4)n3)C2)c1 (stereo not shown) [AU1], the Kd is given as 2.8 µM.
